# Laboratory results reported in PubChem BioAssay AID504582 (Broad Institute, 2011).
# The list shows a part of the results, in another mix than the full data. Some results for these compounds are left out of this collection, so the calls shown say nothing about other tests. Active and inactive are the calls of the source. Cut-off read from the data, not from the text of the source: active = growth rescue above about 28% (passing the limit was not always enough); inconclusive = no clear call, values can overlap the other calls.
# Test: rescue of yeast from PfHsp40 toxicity, primary screen, S. cerevisiae, ATP luminescence (AID 504582);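 note: yeast W303a lacking pdr1 and pdr3 grown in galactose medium; growth measured after three days at 30 °C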
# Conditions: S. cerevisiae expressing PfHsp40, growth rescue, at 12.5 µM, hits give high values
row,Compound,growth rescue
1,O=C(OC1CN2CCC1CC2)C(CO)(c1ccccc1)c1ccccc1 (centres undefined),inactive: 0.462%
2,CN(C)c1cccc(C(=O)NCC2(N(C)C)CCCCC2)c1,inactive: -0.928%
3,O=C(OCCN1CCCC1)C(O)(c1ccccc1)c1ccccc1,inactive: -0.802%
4,CC(C)Oc1ccc(C(=O)NCC2(N(C)C)CCCCC2)cc1,inactive: -1.14%
5,COc1ccc(Br)c(C(=O)NCC2(N3CCCCC3)CCCCC2)c1,inactive: -0.253%
6,COc1cc(C(=O)NCC2(N(C)C)CCCCC2)c([N+](=O)[O-])cc1OC,inactive: -2.17%
7,CN(C)C1(CNC(=O)c2ccc(Br)cc2)CCCCC1,inactive: 3.96%
8,O=C(NCC1(N2CCCCC2)CCCCC1)c1cccc(Cl)c1,inactive: -0.819%
9,COc1ccc(Cl)cc1C(=O)NCC1(N(C)C)CCCCC1,inactive: -1.96%
10,COc1cccc(C(=O)NCC2(N3CCCCC3)CCCCC2)c1,inactive: -0.174%
11,CN(C)c1ccc(C(=O)NCC2(N(C)C)CCCCC2)cc1,inactive: 1.76%
12,CN(C)C1CCCC1OC(=O)C(O)(c1ccccc1)c1ccccc1 (centres undefined),inactive: -1.57%
13,Cc1ccccc1C(=O)NCC1(N2CCCCC2)CCCCC1,inactive: -1.32%
14,O=C(NCC1(N2CCCCC2)CCCCC1)c1cccc(Br)c1,inactive: -0.421%
15,CCN1CCCC(OC(=O)C2(O)c3ccccc3C=Cc3ccccc32)C1 (centres undefined),inactive: 0.759%
16,Cc1cc(C(=O)NCC2(N3CCCCC3)CCCCC2)ccc1[N+](=O)[O-],inactive: -0.88%
17,COc1ccc(C(=O)NCC2(N(C)C)CCCCC2)cc1,inactive: 1.69%
18,O=C(NCC1(N2CCCCC2)CCCCC1)c1cc(F)c(F)cc1Cl,inactive: 1.55%
19,C=CCN1CCN(CCOC(=O)C(O)(c2ccccc2)c2ccccc2)CC1,inactive: 0.314%
20,O=C(NCC1(N2CCCCC2)CCCCC1)c1cc([N+](=O)[O-])ccc1Cl,inactive: -1.49%
21,Cc1ccc(C(=O)NCC2(N3CCCCC3)CCCCC2)cc1,inactive: 0.353%
22,CC(C)N1C(=O)CC2(CCN(CCOC(=O)C(O)(c3ccccc3)c3ccccc3)CC2)C1=O,inactive: -0.411%
23,COc1cc(SC)ccc1C(=O)NCC1(N(C)C)CCCCC1,inactive: -0.084%
24,CCN(CC)CC(C)C(C)OC(=O)C(O)(c1ccccc1)c1ccccc1 (centres undefined),inactive: 1.56%
